From patent publication US10639276B2, “Liposomes with ginsenoside as membrane material and preparations and use thereof” (SHANGHAI GINPOSOME PHARMATECH CO., LTD., priority 2015, dated 2020)

How the values were obtained:
Test in all cases: Cell survival rate, cell experiment in vitro (MTT)
[1] = test system: paclitaxel-resistant human pancreatic cancer cell line (BxPC-3/T); assay type: cell-based; conditions: C (μM): Taxol + Rg5 100 + 600; Taxol 100; Blank Rg5 600
Description: The new recovery BxPC-3 cells were cultured for two generations or three generations under conventional conditions to make the cells grow stably.

[2] = test system: human ovarian cancer cell line (A2780); conditions: C (μM): Taxol + Rg5 0.003906 + 0.02343; Taxol 0.003906; Blank Rg5 0.023438; Abraxane 0.003906
[3] = test system: paclitaxel-resistant human ovarian cancer cell line (A2780/T)

CC(=O)O[C@H]1C(=O)[C@@]2(C)[C@H]([C@H](OC(=O)c3ccccc3)[C@]3(O)C[C@H](OC(=O)[C@H](O)[C@@H](NC(=O)c4ccccc4)c4ccccc4)C(C)=C1C3(C)C)[C@]1(OC(C)=O)CO[C@@H]1C[C@@H]2O [Taxol, paclitaxel]
Cell Viability [1]: 0.166
Cell Viability [2]: 0.847
Cell Viability ([3]; C (μM): Taxol + Rg5 25 + 150, Taxol 25, Blank Rg5 150, Abraxane 25): 0.304
Cell Viability ([3]; C (μM): Taxol + Rg5 100 + 600, Taxol 100, Blank Rg5 600, Abraxane 100): 0.198
Cell Viability ([3]; C (μM): Taxol + Rg5 200 + 1200, Taxol 200, Blank Rg5 1200, Abraxane 200): 0.174
